Laboratory results reported in paper PMC9936496, “Azobenzene-Based Amino Acids for the Photocontrol of Coiled-Coil Peptides” (Bioconjugate Chemistry, 2023).
Starred links: 1 amine or outer side, 2 acyl side, 3 side chain; linkers in the order of their positions; H or OH if unused. Non-standard residues stand in square brackets, D forms with d. Residues, ends and D or L forms follow the SMILES beside them. X1 = O=C([C@@H](N[*:1])c1ccc(N=Nc2ccccc2)cc1)[*:2]

Tests used:
[1] = from 340 nm PSS, PBS, [peptide] = 50 μM; for absorption maximum observed in the dark state regained after 435 nm light: amino acid incorporated at position 9 of peptide K3, absorbance at 335 nm
[2] = Thermal relaxation of K3-APgly from the 340 nm PSS, UV absorbance at 325 nm; type: physicochemical; conditions: PBS, 20 °C, [peptide] = 50 μM
Experimental: For the potential application of K3-APgly in an active system, for example, for membrane fusion, the stability of the photoswitch to repeated light exposures (photocycling) is required. […] Finally, the peptide was irradiated with the 340 nm PSS and allowed to thermally relax, showing 65% recovery in 69 h.
Figure 4 Photocycling of K3-APgly between the dark-adapted, 340 and 435 nm PSS (left), thermal relaxation of the peptide after […] (middle) and distribution of the absorbance in the different states during cycling (right).

Row | SMILES | absorption maximum observed in the dark state regained after 435 nm light [1] | dark absorbance at 325 nm regained after 435 nm light ([1]; 20 °C) | t1/2 of thermal relaxation ([2]; from 340 nm PSS after photocycling) | recovery by thermal relaxation ([2]; in 69 h from 340 nm PSS)
1 | N[C@@H](Cc1ccc(N=Nc2ccc(C(=O)O)cc2)cc1)C(=O)O [APhe2] | 98% |  |  | 
2 | N[C@@H](Cc1ccc(N=Nc2ccccc2)cc1)C(=O)O [APhe1, Phenylazo-phenylalanine] | 92% |  |  | 
3 | CC[C@H](C)[C@H](NC(=O)[C@H](CCCCN)NC(C)=O)C(=O)N[C@@H](C)C(=O)N[C@@H](C)C(=O)N[C@@H](CC(C)C)C(=O)N[C@@H](CCCCN)C(=O)N[C@@H](CCC(=O)O)C(=O)N[C@@H](CCCCN)C(=O)N[C@H](C(=O)N[C@@H](C)C(=O)N[C@@H](C)C(=O)N[C@@H](CC(C)C)C(=O)N[C@@H](CCCCN)C(=O)N[C@@H](CCC(=O)O)C(=O)N[C@@H](CCCCN)C(=O)N[C@H](C(=O)N[C@@H](C)C(=O)N[C@@H](C)C(=O)N[C@@H](CC(C)C)C(=O)N[C@@H](CCCCN)C(=O)N[C@@H](CCC(=O)O)C(N)=O)[C@@H](C)CC)c1ccc(N=Nc2ccccc2)cc1 [K3-APgly] (Ac-KIAALKEK[X1]AALKEKIAALKE-NH2) |  | 92% | 46 h | 65%
